Test results reported in PubChem BioAssay AID2174 (The Scripps Research Institute Molecular Screening Center, 2009).
Only a part is listed here, and it is no random draw. Active and inactive are the calls of the source.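 Rule for the calls: active = inhibition above the mean of all tested compounds plus 3 SD, set per campaign (cut at about 14% in these data); inactive = the rest.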

By UniProt entry, the sequences of proteins in these tests, tags left out. Where a name states a change or a piece, a line headed by the entry shows the natural chain unless it says otherwise.
UniProt O75608: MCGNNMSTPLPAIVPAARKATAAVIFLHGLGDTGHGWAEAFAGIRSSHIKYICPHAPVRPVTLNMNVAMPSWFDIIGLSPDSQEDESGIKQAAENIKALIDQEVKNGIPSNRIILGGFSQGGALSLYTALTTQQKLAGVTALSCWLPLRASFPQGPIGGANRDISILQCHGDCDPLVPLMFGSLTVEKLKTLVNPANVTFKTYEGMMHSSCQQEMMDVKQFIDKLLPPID

Target: Acyl-protein thioesterase 1 (Homo sapiens) (UniProt O75608)
Assay: inhibition of human lysophospholipase 1 – biochemical, fluorescence polarization, FP-Rh probe ABPP, counter-screen for PME1 inhibitor project, primary screen (AID 2174);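 note: inhibitors block serine hydrolase probe labeling of LYPLA1 so polarization falls; 0% = enzyme with DMSO and 100% = wells lacking LYPLA1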
Conditions: recombinant LYPLA1, FP-Rh probe fluorescence polarization; at 5.9 µM; active compounds read high

Row | Compound | inhibition
1 | Nc1ccccc1[As](=O)(O)c1ccccc1 | inactive: -2.45%
2 | CS(=O)(=O)c1cc([N+](=O)[O-])c2no[n+]([O-])c2c1 | inactive: -2.89%
3 | O=P(Nc1nccs1)(Oc1ccccc1)Oc1ccccc1 | inactive: -0.33%
4 | O=P(Nc1nccs1)(c1ccccc1)c1nc2ccccc2s1 (configuration not stated) | inactive: -1.98%
5 | CCOP1(=S)c2c(C)nn(CCC#N)c2N=C(c2ccccc2F)N1C (configuration not stated) | inactive: 1.64%
6 | CN(C(=O)Cc1ccc(Cl)c(Cl)c1)[C@H]1CC[C@@]2(CCCO2)C[C@@H]1N1CCCC1 | inactive: -2.36%
7 | O=[N+]([O-])c1ccc2c(c1)nnn2O | inactive: 2.13%
8 | CN(C)C(=O)c1cc([N+](=O)[O-])cc2c1-c1c(cc([N+](=O)[O-])cc1[N+](=O)[O-])C2=O | active: 14.7%
9 | CN(C(=O)Cc1ccccc1)[C@@H]1CC[C@]2(CCCO2)C[C@H]1N1CCCC1 | inactive: 0.36%
10 | CCOP1(=S)c2c(C)nn(CCC#N)c2N=C(c2ccc(F)cc2)N1C (configuration not stated) | inactive: -0.54%
11 | N#CCCN(C(=O)COC(=O)C(O)(c1ccccc1)c1ccccc1)c1ccc(F)cc1 | inactive: -0.8%
12 | NC(=O)Nc1ccc([As](=O)(O)O)cc1 | inactive: -0.27%
13 | Cc1cccc(OCC(=O)OC2CN3CCC2CC3)c1 (configuration not stated) | inactive: 1.58%
14 | O=[As](O)(c1cccc(O)c1)c1cccc(O)c1 | inactive: 2.69%
15 | CS(=O)(=O)c1ccc(Cl)c(NC(=O)COC(=O)C(O)(c2ccccc2)c2ccccc2)c1 | inactive: -1.46%
16 | O=[As](O)(O)c1cccnc1 | inactive: 2.33%
17 | COc1cc(C(=O)NCC2(N3CCOCC3)CCCCC2)cc(Cl)c1OC(C)C | inactive: -1.31%
18 | O=C(OC1CN2CCC1CC2)c1ccc(Cl)cc1 (configuration not stated) | inactive: -0.08%
19 | CCOP(=O)(Nc1cccc2ccccc12)OCC | inactive: -0.79%
20 | COc1cc(C2NCCC3(OCCO3)C2(C)C)cc(OC)c1OC (configuration not stated) | inactive: 3.27%
21 | CCCOP(=S)(Nc1nc(N)cc(=O)[nH]1)OCCC | inactive: -2.64%
22 | Nc1cccc2c([As](=O)(O)O)cccc12 | active: 18.6%
23 | Cc1ccc(NCCc2c([N+](=O)[O-])cc([N+](=O)[O-])cc2[N+](=O)[O-])cc1 | inactive: -4.1%
24 | CC(C)(C)C(=O)NC(Sc1ncccn1)C(Cl)(Cl)Cl (configuration not stated) | inactive: 2.71%
25 | Clc1n[nH]nc1-c1nn[nH][15n]1 | inactive: -5.98%
26 | CCOP(=O)(Nc1ccc(C)cn1)OCC | inactive: -0.19%
27 | CN(CCCl)Cc1cc(Cl)c(NC2=NCCN2)c(Cl)c1 | inactive: -2.41%
